Where a name gives a salt, the structure may show the parent alone.

Amino acid sequences for entries named in this document (tags omitted).
UniProt P21397, whole entry: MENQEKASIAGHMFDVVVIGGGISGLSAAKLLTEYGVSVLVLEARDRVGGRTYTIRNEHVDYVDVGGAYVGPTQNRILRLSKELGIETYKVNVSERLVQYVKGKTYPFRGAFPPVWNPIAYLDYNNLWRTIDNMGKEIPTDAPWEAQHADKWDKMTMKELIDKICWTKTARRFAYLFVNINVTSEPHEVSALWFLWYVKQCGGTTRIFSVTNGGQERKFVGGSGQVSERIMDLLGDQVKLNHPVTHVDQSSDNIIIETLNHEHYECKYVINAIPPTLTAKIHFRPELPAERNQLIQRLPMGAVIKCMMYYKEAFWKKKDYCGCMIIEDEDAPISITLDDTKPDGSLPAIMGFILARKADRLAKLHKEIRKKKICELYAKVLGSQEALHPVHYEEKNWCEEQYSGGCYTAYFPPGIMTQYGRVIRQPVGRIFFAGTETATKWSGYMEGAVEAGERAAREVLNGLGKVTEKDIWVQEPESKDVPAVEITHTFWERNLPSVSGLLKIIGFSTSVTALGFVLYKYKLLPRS
UniProt P27338, whole entry: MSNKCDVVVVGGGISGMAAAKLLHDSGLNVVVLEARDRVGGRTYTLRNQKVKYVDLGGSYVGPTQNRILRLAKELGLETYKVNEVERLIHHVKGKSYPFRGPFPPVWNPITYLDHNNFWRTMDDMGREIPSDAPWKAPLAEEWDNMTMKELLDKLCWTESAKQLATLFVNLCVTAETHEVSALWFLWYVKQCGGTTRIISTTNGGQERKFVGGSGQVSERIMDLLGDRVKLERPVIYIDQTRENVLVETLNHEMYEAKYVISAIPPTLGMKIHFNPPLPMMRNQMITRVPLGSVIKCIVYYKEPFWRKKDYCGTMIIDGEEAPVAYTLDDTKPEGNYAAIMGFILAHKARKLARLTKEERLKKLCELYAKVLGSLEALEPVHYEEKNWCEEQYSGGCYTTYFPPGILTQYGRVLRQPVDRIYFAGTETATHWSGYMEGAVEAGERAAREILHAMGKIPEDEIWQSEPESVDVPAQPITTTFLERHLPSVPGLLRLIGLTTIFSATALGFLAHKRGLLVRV

The test system of one test is THP-1 cells. In words: cells. Conditions: Homo sapiens, THP-1, 96 h.
The EC50 is the concentration needed to bring the measured effect to its halfway point. In the case of `NC1CCC(N[C@H]2C[C@@H]2c2cncs2)CC1` (relative stereo) [Example 6, N1-((trans)-2-(thiazol-5-yl)cyclopropyl)cyclohexane-1,4-diamine hydrochloride], the EC50 is > 200 nM.

In turn, `NCC1CCC(N[C@H]2C[C@@H]2c2ccccc2)CC1` (relative stereo) [Example 17] came in with an EC50 of 6.3 nM. Still for that read-out and setting: as for `NC1CC(N[C@H]2C[C@@H]2c2ccccc2)C1` (relative stereo) [Example 19, N1-((trans)-2-phenylcyclopropyl)cyclobutane-1,3-diamine], the figure is 2.2 nM; as for `CNC1CCC(N[C@H]2C[C@@H]2c2ccccc2)CC1` (relative stereo) [Example 22, N1-methyl-N4-((trans)-2-phenylcyclopropyl)cyclohexane-1,4-diamine], 3.6 nM.

With `NC1CCC(N[C@H]2C[C@@H]2c2ccc(Br)cc2)CC1` (relative stereo) [Example 26, N1-((trans)-2-(4-bromophenyl)cyclopropyl)cyclohexane-1,4-diamine], the EC50 turned out to be 9.7 nM. This EC50 is about 2.7-fold higher than that of the compound before. Still for that read-out and setting: as for `NC1CCC(N[C@H]2C[C@@H]2c2ccc(C3CC3)cc2)CC1` (relative stereo) [Example 40, N1-((trans)-2-(4-cyclopropylphenyl)cyclopropyl)cyclohexane-1,4-diamine], the figure is 2.5 nM; as for `NC1CCC(N[C@H]2C[C@@H]2c2ccc(OCc3ccccc3F)cc2)CC1` (relative stereo) [Example 57, N1-((trans)-2-(4-((2-fluorobenzyl)oxy)phenyl)cyclopropyl)cyclohexane-1,4-diamine], 2 nM. The same measure, in the same setting: as for `NC1CCC(NC2CC2c2ccc3ccccc3c2)CC1` (centres unmarked) [Example 33, N1-(2-(naphthalen-2-yl)cyclopropyl)cyclohexane-1,4-diamine], the figure is 13.9 nM; as for `N[C@H]1CC[C@@H](N[C@@H]2C[C@H]2c2ccc(-c3cccc(C(F)(F)F)c3)cc2)CC1` [Example 38, (Cis)-N1-((1R,2S)-2-(3′-(trifluoromethyl)-[1,1′-biphenyl]-4-yl)cyclo-propyl)cyclohexane-1,4-diamine], 20 nM; as for `N[C@H]1CC[C@H](N[C@@H]2C[C@H]2c2ccc(-c3cccc(C(F)(F)F)c3)cc2)CC1` [Example 39, (Trans)-N1-((1R,2S)-2-(3′-(trifluoromethyl)-[1,1′-biphenyl]-4-yl)cyclo-propyl)cyclohexane-1,4-diamine], 6.6 nM.

Another test addresses Human recombinant monoamine oxidase MAO-A (Homo sapiens (Human), UniProt P21397). The test is described as follows: Monoamine oxidase assay (kynuramine to 4-hydroxyquinoline fluorescence), MAO-A. The test is classed as biochemical.
Details: not given
A word on the Ki: it is a measure of affinity in units of concentration, obtained from inhibition or displacement. As to `OC1CCC(N[C@@H]2C[C@H]2c2ccc(-c3cccc(C(F)(F)F)c3)nc2)CC1` (relative stereo) [Example 11, 4-(((trans)-2-(6-(3-(trifluoromethyl)phenyl)pyridin-3-yl)cyclopropyl)amino)cyclohexanol], the Ki was 1000 to 40000 nM. Turning to `NC(=O)C1CCC(N[C@@H]2C[C@H]2c2ccc(-c3cccc(C(F)(F)F)c3)nc2)CC1` (relative stereo) [Example 12, 4-(((trans)-2-(6-(3-(trifluoromethyl)phenyl)pyridin-3-yl)cyclopropyl)amino)cyclohexanecarboxamide hydrochloride], the Ki was 1000 to 40000 nM.

Another test has as its target Human recombinant monoamine oxidase MAO-B (Homo sapiens (Human), UniProt P27338). The test is described as follows: Monoamine oxidase assay (kynuramine to 4-hydroxyquinoline fluorescence), MAO-B. The class given is biochemical.
Details: not given
Consider `OC1CCC(N[C@@H]2C[C@H]2c2ccc(-c3cccc(C(F)(F)F)c3)nc2)CC1` (relative stereo) [Example 11, 4-(((trans)-2-(6-(3-(trifluoromethyl)phenyl)pyridin-3-yl)cyclopropyl)amino)cyclohexanol], for which the Ki fell in the range of 1000 to 40000 nM. On the same count and under the same terms, in the case of `NC(=O)C1CCC(N[C@@H]2C[C@H]2c2ccc(-c3cccc(C(F)(F)F)c3)nc2)CC1` (relative stereo) [Example 12, 4-(((trans)-2-(6-(3-(trifluoromethyl)phenyl)pyridin-3-yl)cyclopropyl)amino)cyclohexanecarboxamide hydrochloride] it was 1000 to 40000 nM.
